Laboratory results as given in PubChem BioAssay AID1347076 (National Center for Advancing Translational Sciences (NCATS), 2019).
The list shows a part of the results, in another mix than the full data. Results filed as inconclusive are left out. The source made the active and inactive calls. Calls follow the shape of the dose curve; as a rule, active = well fitted cell-killing curve with a large enough effect; inconclusive = small, poorly fitted or top-dose-only effect, or effect the other way; inactive = flat fitted curve, though single readings scatter.

Experiment: qHTS assay for MDR1-selective chemotherapeutics: Primary screen using the drug-selected MDR subline cells KB-V1; also: nearly all actives have a fitted effect of over 60% in size
Settings: KB-V1 MDR cells viability, CellTiter-Glo, 72 h; at 46.1 µM (top of the series)
From the text: A prime difficulty in effectively treating cancer is the development of cellular resistance to multiple structurally unrelated anticancer drugs, a phenomenon known as multidrug resistance (MDR). […] Numerous strategies to overcome P-gp-mediated MDR have been explored, including the design of drugs that evade recognition and efflux, and development of inhibitors to block efflux and restore drug accumulation. […] An alternative approach is to exploit resistance by identifying drugs that target MDR cells over the non-resistant parental cells from which they were selected. […] The development of MDR1-selective agents represents a new strategy for resolving multidrug resistance, as it remains a long-standing clinical challenge for cancer chemotherapy.
Our goal is to identify compounds that selectively kill P-gp-expressing MDR cells. We will identify MDR1-selective compounds by comparing toxicity of compounds in the screening library against parental, drug-naive (KB-3-1) adenocarcinoma cells as well as their drug-selected MDR sub-line (KB-V1). The differential toxicity of compounds against these two cell lines will be used to identify MDR1-selective compounds, whose cytotoxicity is potentiated, rather than diminished, by P-gp expression. This assay will be utilized to conduct a quantitative high-throughput screen (qHTS) in collaboration with the NIH Chemical Genomics Center to identify selective agents, and probe hits arising from the screen will be validated using secondary assays and characterized through a well-established follow-up research program. This screen was run against the entire NCGC library collection of about 400,000 compounds.
NIH Molecular Libraries Probe Production Network [MLPCN]
NIH Chemical Genomics Center [NCGC]
PI: Michael Gottesman, National Cancer Institute, NIH
Briefly, 5 microL of media containing either KB-V1 cells (columns 1-2, 4-48) are dispensed into Greiner white, treated solid-bottom 1536-well assay plates (media-only control is added to column 3). Compounds are then transferred via Kalypsys pin tool equipped with 1536-pin array (10 nL slotted pins, V&P Scientific, San Diego, CA). Following addition of compound, the plates are incubated at 37 degrees C for 72 hours. CellTiter-Glo (2.5 µL/well) is then added, and the plates are read in a ViewLux reader (Perkin-Elmer, clear luminescence filter, 1 second exposure, 1x binning) following a 10 minute incubation. All cells are dispensed in DMEM phenol-red free media containing 10% FBS.
Library plates were screened starting from the lowest and proceeding to the highest concentration. Vehicle-only plates, with DMSO being pin-transferred to columns 5-48, will be inserted uniformly at the beginning and the end of each library in order to monitor and record any shifts in the background, which can be affected by reagent dispensers or loss in enzyme activity over time. Screening data will be corrected, normalized, and concentration-effect relationships will be derived by using publicly-available NCGC, NCATS curve fitting algorithms (http://ncgc.nih.gov/pub/openhts).
% is scaled to controls: 0 for no effect and ±100 for the full control effect.

| Compound | activity change, negative = cytotoxicity |
| --- | --- |
| COc1ccccc1OP(C)(=O)Nc1c(C)n(C)n(-c2ccccc2)c1=O (configuration not stated) | inactive: 12.3% |
| O=C(OCCCN1CCCC1)C(O)(c1ccccc1)C1CCCCC1 (configuration not stated) | inactive: 0.252% |
| CP(=O)(Oc1ccccc1)N1CCOC1=O (configuration not stated) | inactive: 3.6% |
| CCc1ccc(OP(C)(=O)Nc2cccnc2)cc1 (configuration not stated) | inactive: 0.0545% |
| CCN(CC)CC(O)COC(=O)C(O)(c1ccccc1)C1CCCCC1 (configuration not stated) | inactive: -12.5% |
| COc1ccc(OP(C)(=O)Nc2ccc(Br)cc2)cc1 (configuration not stated) | inactive: -28.1% |
| COc1ccccc1OP(C)(=O)Nc1ccccc1Br (configuration not stated) | inactive: -19.2% |
| CC(C)(C)c1ccc(OP(C)(=O)O)cc1 | inactive: 10.4% |
| CP(=O)(Nc1ccc(Cl)cc1)Oc1ccc(F)cc1 (configuration not stated) | inactive: -20.4% |
| CP(=O)(OC12CC3CC(CC(C3)C1)C2)OC12CC3CC(CC(C3)C1)C2 | inactive: 1.1% |
| Nc1ccc2c(ccc3cccnc32)n1.O=[N+]([O-])c1cc([N+](=O)[O-])c(O)c([N+](=O)[O-])c1 | inactive: 3.12% |
| COc1ccccc1OP(C)(=O)Nc1ccc(C)c(C)c1 (configuration not stated) | inactive: 3.03% |
| COc1ccc(OP(C)(=O)Nc2ccccc2Br)cc1 (configuration not stated) | inactive: -6.51% |
| CCCCCCCCCCCCCCCC1C[N+](C)(C)CCOP(C)(=O)O1 (configuration not stated) | inactive: -23.2% |
| CP(=O)(Nc1ccc(Cl)cc1Cl)Oc1ccccc1 (configuration not stated) | inactive: 14.5% |
| CP(=O)(OCCOc1ccccc1)OCCOc1ccccc1 | inactive: -4.78% |
| COc1ccc(OP(C)(=O)Nc2ccccn2)cc1 (configuration not stated) | inactive: -0.133% |
| CN(C)CCOC(=O)C(O)(c1ccccc1)C1CCCC1 (configuration not stated) | inactive: 9.78% |
| COc1ccccc1OP(C)(=O)Nc1ccc(Br)cc1 (configuration not stated) | inactive: -10.8% |
| CP(=O)(Nc1ccccn1)Oc1ccccc1 (configuration not stated) | inactive: -4.15% |
| COc1ccccc1OP(C)(=O)Nc1ccc(C)cc1C (configuration not stated) | inactive: -12.9% |
| CCc1ccc(OP(C)(=O)O)cc1 | inactive: 23.7% |
| Cc1c(NP(C)(=O)Oc2ccc(C(C)C)cc2)c(=O)n(-c2ccccc2)n1C (configuration not stated) | inactive: 15.6% |
| CP(=O)(Nc1ccccc1F)Oc1ccccc1 (configuration not stated) | inactive: -1.85% |

| Compound | activity change, negative = cytotoxicity |
| --- | --- |
| CP(=O)(Nc1ccccc1)Oc1ccc(F)cc1 (configuration not stated) | inactive: -1.21% |
| CCCCCOc1ccc(NP(C)(=O)Oc2ccc(Cl)cc2Cl)cc1 (configuration not stated) | inactive: 0% |
| Cc1c([N+](=O)[O-])cc([N+](=O)[O-])c(Br)c1[N+](=O)[O-] | inactive: 3.25% |
| CCN(CC)CCCOC(=O)C(O)(c1ccccc1)C1CCCCC1 (configuration not stated) | inactive: -2.53% |
| CN(C)CCOC(=O)C(O)(c1ccccc1)C1CCCCC1 (configuration not stated) | inactive: 9.72% |
| COc1ccc(NP(C)(=O)Oc2ccccc2OC)cc1 (configuration not stated) | inactive: 9.51% |
| COc1ccc(OP(C)(=O)Nc2cccc(Br)c2)cc1 (configuration not stated) | inactive: -11.2% |
| Cc1c(C(c2ccc3c(c2)OCO3)c2c(C)n(C)n(-c3ccccc3)c2=O)c(=O)n(-c2ccccc2)n1C.O=[N+]([O-])c1cc([N+](=O)[O-])c(O)c([N+](=O)[O-])c1 | inactive: -0.987% |
| O=[N+]([O-])c1ccc(OP2(=O)COCCO2)cc1 (configuration not stated) | inactive: -10.6% |
| CCOP(C)(=S)SCC(=O)NC(C)(CC)C(=O)O (configuration not stated) | inactive: 4.26% |
| CP(=O)(Nc1ccc(SC(F)(F)F)cc1)Oc1ccc(F)cc1 (configuration not stated) | inactive: -2.87% |
| Cc1ccccc1NP(C)(=O)Nc1ccccc1C | inactive: -4.36% |
| O=[N+]([O-])c1cc([N+](=O)[O-])c(C(F)(F)F)c([N+](=O)[O-])c1O | inactive: -14% |
| CP(=O)(Nc1ccc2c(c1)OCCO2)Oc1ccccc1 (configuration not stated) | inactive: -1.51% |
| CN(Cc1cccnc1)C(=O)COc1ccc(Cl)c(Cl)c1.O=[N+]([O-])c1cc([N+](=O)[O-])c(O)c([N+](=O)[O-])c1 | inactive: 2.33% |
| O=[N+]([O-])c1cc([N+](=O)[O-])c(-n2nnc3ccccc32)c([N+](=O)[O-])c1 | inactive: -4.13% |
| Cc1nc2ccc3ccccc3c2s1.O=[N+]([O-])c1cc([N+](=O)[O-])c(O)c([N+](=O)[O-])c1 | inactive: 6.15% |
| CC1=C2N=C(C=C3N=C(C(C)=C4[N-][C@@](C)([C@@H]5N=C1[C@](C)(CCC(=O)NC[C@@H](C)OP(=O)([O-])O[C@H]1[C@@H](O)[C@@H](n6cnc7cc(C)c(C)cc76)O[C@@H]1CO)[C@H]5CC(N)=O)[C@@](C)(CC(N)=O)[C@@H]4CCC(N)=O)[C@@](C)(CC(N)=O)[C@@H]3CCC(N)=O)C(C)(C)[C@@H]2CCC(N)=O.[C-]#N.[Co+3] | inactive: 12.4% |
| O=[N+]([O-])c1cc([N+](=O)[O-])c(Nc2nnnn2CCO)c([N+](=O)[O-])c1 | inactive: -16.4% |
| COc1ccc(-c2ccccn2)cc1.O=[N+]([O-])c1cc([N+](=O)[O-])c(O)c([N+](=O)[O-])c1 | inactive: -3.66% |
| CCCOc1ccc(NP(C)(=O)Oc2ccc(Cl)cc2)cc1 (configuration not stated) | inactive: 9.4% |
| CP(=O)(Nc1ccc(SC(F)(F)F)cc1)Oc1ccccc1 (configuration not stated) | inactive: -10.2% |
| CN1CCCCC1COC(=O)C1(O)c2ccccc2CCc2ccccc21 (configuration not stated) | inactive: 0% |
| COc1ccccc1OP(C)(=O)Nc1c(C)cccc1C (configuration not stated) | inactive: -1.33% |

| Compound | activity change, negative = cytotoxicity |
| --- | --- |
| CC1=NCCc2c1[nH]c1ccccc21.O=[N+]([O-])c1cc([N+](=O)[O-])c(O)c([N+](=O)[O-])c1 | inactive: -24.8% |
| Cc1cc(C)cc(OP(C)(=O)Nc2ccc(C)cc2C)c1 (configuration not stated) | inactive: -2.56% |
| Cc1ccc(C)c(NP(C)(=O)Oc2ccccc2)c1 (configuration not stated) | inactive: 5.81% |
| Cc1cc(C)cc(OP(C)(=O)Nc2ccccn2)c1 (configuration not stated) | inactive: 6.83% |
| CP(=O)(Nc1cccc(Br)c1)Oc1ccccc1 (configuration not stated) | inactive: 0% |
| CCN(CC)CCCOC(=O)C(O)(c1ccccc1)c1ccccc1 | inactive: -2.21% |
| COc1ccccc1-c1ccccn1.O=[N+]([O-])c1cc([N+](=O)[O-])c(O)c([N+](=O)[O-])c1 | inactive: -3.59% |
| O=[N+]([O-])c1ccc2c(c1)C=Nc1ccccc1O2 | inactive: -17.8% |
| Cc1cccc(C)c1OP(C)(N)=O (configuration not stated) | inactive: -4.17% |
| O=[N+]([O-])c1cc([N+](=O)[O-])c(Nc2cccnc2)c([N+](=O)[O-])c1 | inactive: -23.5% |
| COc1ccccc1OP(C)(=O)Nc1cc(Cl)ccc1C (configuration not stated) | inactive: 0% |
| COc1ccc(OP(C)(=O)Nc2cccc(F)c2)cc1 (configuration not stated) | inactive: 3.18% |
| Cc1ccc(NP(C)(=O)Oc2ccccc2)c(C)c1 (configuration not stated) | inactive: 5.28% |
| CCOC(=O)c1ccc(NP(C)(=O)Oc2ccccc2)cc1 (configuration not stated) | inactive: -29.5% |
| COc1ccccc1OP(C)(=O)Nc1ccccc1 (configuration not stated) | inactive: -2.81% |
| CP(=S)(Nn1cnnc1)Oc1ccccc1 (configuration not stated) | inactive: -12.6% |
| CP(=O)(NC(=O)Nc1ccccc1)Oc1ccccc1 (configuration not stated) | inactive: 12.4% |
| Cc1cc(C)cc(OP(C)(=O)Nc2ccc(SC(F)(F)F)cc2)c1 (configuration not stated) | inactive: 4.52% |
| CP(=O)(Nc1ccc(SC(F)(F)F)cc1)Oc1ccc(Cl)cc1 (configuration not stated) | inactive: -0.347% |
| Cc1cccc(C)c1OP(C)(=O)Nc1ccc(SC(F)(F)F)cc1 (configuration not stated) | inactive: -10.5% |
| CP(=O)(Oc1ccccc1)OC(c1ccccc1)C(F)(F)F (configuration not stated) | inactive: -1.94% |
| CP(=O)(Nc1ccccn1)Oc1ccc(Cl)cc1 (configuration not stated) | inactive: 7.78% |
| O=[N+]([O-])c1cc([N+](=O)[O-])c(O)c([N+](=O)[O-])c1.c1ccc(Oc2ccncc2)cc1 | inactive: 22.3% |
| CCOP(C)(=S)SCC(=O)NC(C)C(=O)O (configuration not stated) | inactive: 8.52% |
